Antibody variant affinities, Ab-14 light chain, assay B

Reference: Li et al. 2023, doi:10.1038/s41467-023-39022-2. File: FLAb, binding data.

Target peptide (SARS-CoV-2 spike, HR2 region): PDVDLGDISGINAS

The variants keep the heavy chain, the linker and the frameworks of Ab-14 (scFv order VH, a 15-residue (Gly4Ser)3 linker, VL).
VH: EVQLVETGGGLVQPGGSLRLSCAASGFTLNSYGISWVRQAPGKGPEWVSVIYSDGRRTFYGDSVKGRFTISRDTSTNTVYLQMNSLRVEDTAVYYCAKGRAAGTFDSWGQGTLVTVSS
VL: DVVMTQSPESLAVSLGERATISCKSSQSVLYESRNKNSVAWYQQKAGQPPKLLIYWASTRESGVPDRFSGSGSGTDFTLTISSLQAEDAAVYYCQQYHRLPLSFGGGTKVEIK

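Phage display of a naive human antibody library on the peptide gave the parent. The variants were designed computationally from a first round of random CDR variants and then made and measured. Group labels follow the data file (Ctrl: baseline library sampled from a position-specific scoring matrix, with some repeated check sequences; En: ensemble of fine-tuned language models; GP: Gaussian process model; HC: hill climbing; Gen: genetic algorithm; Gibbs: Gibbs sampling; a sequence that several methods proposed may carry one label only). Affinity was read by AlphaSeq, a pooled yeast mating assay with surface-displayed partners. Pairs that bind mate more often; barcode pairs of the diploids are counted by sequencing. The ratio of observed to expected reads was calibrated, replicate by replicate, on BCL2-family standards whose Kd was known from biolayer interferometry. There are six technical replicates.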

Variants are written as CDR1, CDR2 and CDR3 of the light chain (limits as in the source). Parent: KSSQSVLYESRNKNSVA, WASTRES, QQYHRLPLS.
Affinities are written as log10 Kd with Kd in nM; a lower number is a better binder.
Averages over replicates are reported, and they cover detected replicates only.
"nd" means that the variant was in the library but no mating with the target was seen in any replicate; the authors take this as a sign of poor binding, and no number exists.

CDR-L1	CDR-L2	CDR-L3	group	mean, log10 nM	replicates with signal
KSGQSVLYESRNPNSVA	QASTRES	QQYHRLPLS	Ctrl	0.37	6/6
TFNLEYMGMMEDHNSIA	ETEHKTP	QQYFRLPIS	En_Gibbs	1.45	6/6
QIYQAMHTLMGAKNNVA	DVTNRGK	QQYNRLPLS	En_Gen	-0.12	6/6
MFLKEDFQELAAKNAIA	NAREAVT	QHYFRLPLV	En_Gibbs	0.72	6/6
KLSQSVGYESRNKNSVA	NASTREQ	QQYHRLPLS	GP_Gen	-0.12	6/6
KSSQSQLYESRNKNSVA	RASTRES	QQYHRLPLS	Ctrl	0.95	6/6
KSSQSFLYESRNVNSVA	WASTRES	QQYHRLPLY	Ctrl	1.67	1/6
SFDLTKEGMENQQYSIA	ERNELMT	QDYHRLPLA	En_Gibbs	2.35	1/6
KSSQSVLYESRNKNSVA	WASTRES	QQYHRAPLS	Ctrl	nd	0/6
MISQISSMGQFAKNSVA	QASLRNN	QQYDRLPLI	En_Gen	0.75	6/6
KMSQSWLYEDRVKNSVA	GASTRES	QQYHRLPLS	GP_HC	-0.04	6/6
KLRSLTHIESFNKNNVA	EMTTRES	QSYDRLPLS	En_HC	1.58	6/6
TISQVMNTLTRLGNNVA	DLAERED	QQYFRLPLS	En_Gen	1.00	6/6
FLAGALDQDGLIKNNIA	QDNLLEN	QQYERLPLG	En_Gibbs	nd	0/6
KSSQSVLYESRGKNSVA	SASTRES	QQYHRLPLS	Ctrl	1.21	6/6
KVSQSFLYESRNKNAVA	GASTRES	QQYHRLELS	GP_HC	1.09	6/6
KMSQSVLMGGRNDNSVA	EASTRCD	QQYHRLPLS	GP_Gibbs	0.06	6/6
KLSQSDWMESRNVNNVA	EASQRES	QQYHRLPLS	GP_Gibbs	0.19	6/6
KSSQSVLDESRNDNSVA	WASTRNS	QQYHRLPLS	Ctrl	1.28	6/6
KHQQSVLYESRNKNNVA	HASTRED	QQYHRLPLS	GP_HC	-0.06	6/6
MISQMYNMGQFAINSVA	QASQRCN	QQYDRLPLM	En_Gen	0.29	4/6
KITQMVNYESTHINAVA	QMSTREE	QQYFRLPLS	En_HC	0.15	3/6
MISQLFMYGSRNYNSIA	QAETREK	QQYDRLPLE	En_HC	1.80	6/6
SLMDNPWVEDTYRKAIA	DINVRAD	QQYHRLPLS	En_Gibbs	0.44	6/6
KLSQSELYESRNKNSVA	AASTRES	QQYHRLPLS	GP_Gen	-0.07	6/6
TISTLMRYETSLKNAIA	NAQTREN	QQYHRLPIS	En_HC	0.10	6/6
KQSQSVLYEERNKNSVA	DASTRES	QQYHRLPLS	GP_HC	-0.16	6/6
KLSQSVLYQSRNKNSVA	NASTRES	QDYHRLPLS	GP_Gen	0.52	6/6
KFSQSVMYESRNKNSVA	EASTRES	QQYHRLPLS	GP_Gen	0.45	6/6
HSSPSVLYESRNPNSVA	NASTRES	QQYHRLPLS	GP_HC	-0.57	6/6
IVSQLMLWGHLAKNSIA	EAQTRVN	QQYDRLPLF	En_Gen	0.90	6/6
KVSWSVELQSRNWGQVA	SASTREL	QQYHRLPLS	GP_Gibbs	0.61	6/6
KLPQSWLYESQNSNSVA	HASQRMD	QQYHRLPLS	GP_Gibbs	0.10	6/6
KFEMLWDYKDRNLNSVA	NASTRES	QQYHRLPLS	GP_Gibbs	0.35	6/6
QIDSFYQHGDDQNQAMA	DVTMRDQ	QQYSRLPLS	En_Gibbs	0.80	6/6
KCKQSSDYESRNFNSVA	NASTRES	QQYHRLPLS	GP_Gibbs	0.07	6/6
QLFSRWGQLTEIRQAVA	DATTVID	QQYMHLPLT	En_Gibbs	0.18	1/6
KLQQSYLYESRNKNSVA	EASTRES	QQYHRLPLS	GP_Gen	-0.27	6/6
KSSFSYLYESRNKNSVA	AASTRES	QQYHRLPLS	GP_HC	1.15	5/6
KLMYSKEYESRMKNSVA	EASVREE	QQYHRLPLS	GP_Gibbs	0.24	6/6
KLSQSTLYDSQNKNSVA	HASTRES	QQYHRLPLS	GP_HC	0.11	6/6
MIDQASMTEWDKGNSVA	EENHKYN	QQYFQLPLI	En_Gibbs	1.52	6/6
KSYISFLYESRNKNSVA	EASTRES	QQYHRLPLS	GP_HC	0.42	6/6
KLSQSVLYESRNSNSVA	NASYRES	QQYHRLPLS	GP_Gen	-0.14	6/6
MVSQLMLWGLHAKNSIA	EAHTRLN	QQYDRLPLI	En_Gen	1.95	6/6
KSSQSVVYESRNKNSVA	WASTRES	QQYHRLPLS	Ctrl	1.97	3/6
MLSDLVKMGSRNGNSVA	DNSTRGS	QQYDRLPLS	En_HC	2.23	3/6
KSSQSGLLESRNKNSVA	WASTRES	QQYHRLPLS	Ctrl	1.67	6/6
KLSQGQLYESRNKNNVA	SASTREM	QQYHRLPLS	GP_Gibbs	-0.12	6/6
KVFISELGLSRNKMSVA	DASTRES	QQYHRLPLS	GP_Gibbs	0.40	6/6
NLAGMTAHESVKNSNVA	ERSTREK	QQYNRLPLS	En_Gen	0.81	6/6
KIQGMYQKESKNKNSVA	EMVNRES	QQYDRLPLS	En_HC	1.54	6/6
KYDFSVLEESRNSNSVA	NASTREE	QDYHRLPLS	GP_Gibbs	0.28	6/6
TISQSVNMTSRGKNSVA	QAEMREE	QQYDRLPLS	En_HC	1.23	6/6
KISYLDYRGSQWHNNIA	EGSQRAE	QQYIRLPLN	En_Gibbs	0.76	6/6
KLEQSELYESRNKNSVA	NASQRMS	QQYHRLPLS	GP_Gen	0.23	6/6
KVQQSQLYESRNKNSVA	DASTRES	QQYHRLPLS	GP_Gen	-0.20	6/6
KLSQSVLYESRWKNSVA	DASTRES	QQYHRLPLS	GP_Gen	-0.23	6/6
KLQQSELYESRNKNSVA	NASTREE	QQYHRLPLS	GP_Gen	-0.09	6/6
KISQSVLYNSRNTNSVA	WASTRES	QQYHRLPLS	Ctrl	0.71	6/6
KLPQSMEYESRNKQSVA	AASTRES	QQYHRLPLS	GP_Gibbs	-0.05	6/6
KLQQSEEYESRQFNSVA	EASTRNL	QQYHRLPLS	GP_Gibbs	0.68	6/6
KLYDMSAVTMSNIRNVA	DNTTREQ	QQYHRLPLS	En_Gen	1.67	3/6
KLSQSWLYESRNKNSVA	HASQRLS	QQYHRLPLS	GP_Gen	0.50	6/6
KSSISYLTESMNKNSVA	EASTRES	QQYHRLPLS	GP_HC	0.33	6/6
KSSSSVLYESRNKNSVA	GASTRES	QQMHRLPLS	Ctrl	1.67	4/6
KLEQSVEYESRNKNSVA	NASTRLS	QQYHRLPLS	GP_Gen	0.05	6/6
KLMQSEGYESRNKNSVA	NASQRES	QQYHRLPLS	GP_Gen	-0.25	6/6

The first 2 variants above that were never detected:

CDR-L1	CDR-L2	CDR-L3	group	mean, log10 nM	replicates with signal
KSSQSVLYESRNKNSVA	WASTRES	QQYHRAPLS	Ctrl	nd	0/6
FLAGALDQDGLIKNNIA	QDNLLEN	QQYERLPLG	En_Gibbs	nd	0/6

The authors averaged sequences with at least three values out of six and counted those with two or fewer as poor binders.
Empty control strains, which show no peptide, gave a signal in 4% of pairings with all light chain designs; the median was 2.64 and 95% of these signals were weaker than 1.59. No background was subtracted.
The range of this assay differs from that of the first round, and the authors advise against merging the two.
The parent sequence was in this pool as ten entries: three were never detected, three once, and four in most replicates, with averages from 0.34 to 2.37.